Experiments:
infliximab-TNFα complex = infliximab-TNFα complex (UniProt P01375); experiment: QCM, immobilized TNFα; 100 µg/mL C1q plus 100 µg/mL infliximab in PBS (5 µL into 495 µL) against infliximab alone
[1] = molecular target: T1, tumor necrosis factor α (TNFα) (UniProt P01375 77-233); experiment: QCM (27 MHz), TNFα immobilized on gold electrode, infliximab in PBS, curve regression with 1:1 binding model
T1 construct: also called TNFα 4

By UniProt entry, the sequences of proteins in these tests, tags left out. Residues count along the entry.
UniProt P01375, 77-233: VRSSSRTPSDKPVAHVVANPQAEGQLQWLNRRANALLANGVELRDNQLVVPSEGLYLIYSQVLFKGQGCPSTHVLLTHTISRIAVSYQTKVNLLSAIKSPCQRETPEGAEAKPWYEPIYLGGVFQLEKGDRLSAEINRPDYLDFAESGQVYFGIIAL

Molecule	frequency change above infliximab alone (infliximab-TNFα complex) [Hz]	Kd [1] [nM]
C1q (from UniProt P02745 23-245; P02746 28-253; P02747 29-245)	1000	
infliximab (antibody, V domains shown) VH: EVKLEESGGGLVQPGGSMKLSCVASGFIFSNHWMNWVRQSPEKGLEWVAEIRSKSINSATHYAESVKGRFTISRDDSKSAVYLQMTDLRTEDTGVYYCSRNYYGSTYDYWGQGTTLTVSS VL: DILLTQSPAILSVSPGERVSFSCRASQFVGSSIHWYQQRTNGSPRLLIKYASESMSGIPSRFSGSGSGTDFTLSINTVESEDIADYYCQQSHSWPFTFGSGTNLEVKR		0.48

— patent publication US20110269149A1 (published 2011)
